Source: patent US7655810B2, “Phosphine transition metal complex, method for producing the same, and antitumor agent containing the same” (Nippon Chemical Industrial Co., Ltd., priority 2005, dated 2010)

System: female Sprauge-Dawley SPF rats
Assay: Toxicity test by single oral administration to rats
Format: in vivo, rat
Settings: single oral dose in corn oil, female SD rats, observed until the 14th day
Protocol: After female Sprauge-Dawley SPF rats (CrJ: CD (SD)) were quarantined and acclimated for about a week, healthy 8-week-old rats were selected in groups of five rats. The rats was fasted overnight before administration, and single oral doses of 20, 50, 100, and 300 mg/kg of the phosphine gold complex, and 10, 20, 50, and 100 mg/kg of cisplatin dissolved in corn oil were administrated the respective rats. The rats were observed 10 and 30 minutes and 1, 2, and 4 hours after administration, and further observed daily until the 14th day.

Bis(1,2-bis((2R,5R)-2,5-(dimethylphosphorano)benzene))gold (I) Chloride [Example 4]
LD50 (50% lethal dose): >300 mg/kg
